Measurements from patent publication US6713473B1, “Tricyclic compounds” (Meiji Seika Kaisha, Ltd., priority 1999, dated 2004).

Molecular target: T1, human Y5 receptor (Homo sapiens, UniProt Q15761)
T1 sequence (Q15761 1-445): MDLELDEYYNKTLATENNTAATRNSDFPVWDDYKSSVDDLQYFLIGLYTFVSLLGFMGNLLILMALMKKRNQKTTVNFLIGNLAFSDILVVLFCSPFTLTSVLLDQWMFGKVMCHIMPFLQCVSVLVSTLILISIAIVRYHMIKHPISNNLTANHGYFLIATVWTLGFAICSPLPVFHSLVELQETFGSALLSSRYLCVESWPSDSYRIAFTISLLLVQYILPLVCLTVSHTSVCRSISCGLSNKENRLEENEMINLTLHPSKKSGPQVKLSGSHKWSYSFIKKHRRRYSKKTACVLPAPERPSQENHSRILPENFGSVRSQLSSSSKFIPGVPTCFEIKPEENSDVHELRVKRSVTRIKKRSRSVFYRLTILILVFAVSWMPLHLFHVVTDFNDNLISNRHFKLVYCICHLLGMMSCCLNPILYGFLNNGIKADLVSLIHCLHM
Experiment: Y5 receptor binding inhibition test
Details: 2 h, read-out: % Inhibition ratio (10 μM)

CCn1c2ccccc2c2cc(NC(=O)C(C)C)ccc21 [Compound 3-4]
inhibition at 10 µM: 96%
